This is an account of results in patent US20220119459A1 (OXFORD UNIVERSITY INNOVATION, published 2022).

Changes are numbered by the printed parent chain. Names and notes keep the numbering of the source.

Data set [1] deals with the molecule itself. In words: SDS-PAGE with Coomassie staining (FIG. 7A).
Data set [2] has as its target T1, AP-SpyTag002-MBP.
T1 construct: not shown: AP peptide tag for site-specific biotinylation; only primer DNA is printed for it
Nature of the data set: 0.5 µM each, PBS pH 7.5, 25 °C, SDS-PAGE with Coomassie staining (FIG. 16).

B1: L1C6 SpyCatcher variant (designed binder)
chain: GAMVDTLSGLSGEQGPSGDMTTEEDSATHIKFSKRDEDGRELAGATMELRDSSGKTISTWISDGHVKDFYLYPGKYTFVETAAPDGYEVATAITFTVNEQGQVTVNGEATKGDAHT
notes: also called SpyCatcher L1C6
Take B1: the binding result in data set [1] was “binds”.

B2: SpyCatcher002D5A (designed binder)
chain: B1 chain with D5A
notes: also called D5A SpyCatcher002; variant of SpyCatcher002 containing an alanine residue at position 5
On to B2, for which the “reaction rate (second-order rate constant)” value in data set [2] worked out at 7500 M⁻¹ s⁻¹.
